Patent US20220267436A1 (NANJING GENSCRIPT BIOTECH, published 2022)

By UniProt entry, the sequences of proteins in these tests, tags left out. Residues count along the entry.
UniProt Q08722, 19-323: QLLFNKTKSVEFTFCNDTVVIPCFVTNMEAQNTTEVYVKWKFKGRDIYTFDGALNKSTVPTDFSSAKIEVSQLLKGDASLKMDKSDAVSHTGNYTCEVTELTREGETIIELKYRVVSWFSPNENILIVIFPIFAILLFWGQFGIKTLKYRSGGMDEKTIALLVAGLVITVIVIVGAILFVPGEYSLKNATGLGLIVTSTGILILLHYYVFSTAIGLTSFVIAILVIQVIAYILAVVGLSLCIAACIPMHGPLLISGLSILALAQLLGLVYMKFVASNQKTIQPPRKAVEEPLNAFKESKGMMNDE

Molecular target: T1, human CD47 (human, UniProt Q08722 19-323)
T1 construct: whole, on cells; also called CD47 antigen; integrin associated protein
Assay: flow cytometry on CHO-K1 cells expressing human CD47
Experimental: For the constructed series of bispecific antibodies, the affinity of these samples with antigens was measured by using a flow cytometer. […] Then, an antibody-antigen binding curve was generated based on the geometric mean, raw data of four parameters was plotted by using the […] Prism V6.02 software, and a best fitted value program was compiled to analyze EC₅₀.

binding result: binds
B1: bispecific antibody LAG3-E-LC (bispecific antibody, human IgG4 S228P, kappa)
heavy: not shown
light: EIVLTQSPATLSLSPGERATLSCRASENVGTYISWYQQKPGQAPRLLIYGASNRYTGIPARFSGSGSGTDFTLTISSLEPEDFAVYYCGESYGHLYTFGGGTKVEIKRTVAAPSVFIFPPSDEQLKSGTASVVCLLNNFYPREAKVQWKVDNALQSGNSQESVTEQDSKDSTYSLSSTLTLSKADYEKHKVYACEVTHQGLSSPVTKSFNRGECEPKSSDKTHTSPPSPEVQLVESGGGLVQPGGSLRLSCAASGYTVSSYCMGWFRQAPGKGREGVSAIDSDGSVSYADSVKGRFTISKDNSKNTLYLQMNSLRAEDTAVYFCAADLCWVDQDQGEYNTWGQGTLVTVSS
notes: Two identical fused chains and two identical natural chains; also called L1 + H0
